Patent US20240398795A1, “COMBINATION THERAPIES USING PRMT5 INHIBITORS FOR THE TREATMENT OF CANCER” (MIRATI THERAPEUTICS, INC., priority 2021, published 2024)

Tested on: MIAPaCa-2 xenograft tumors
Experiment: MIAPaCa-2 xenograft tumor volume study
Format: in vivo, mice
Details: Day 8; n=5; MRTX1719 100 mg/kg PO QD; Docetaxel 15 mg/kg IP Q7D; combination 100 mg PO QD + 15 mg/kg IP Q7D
Method: Immunodeficient female nu/nu or BALBC/Nude mice were subcutaneously implanted with 3×10^6 to 1×10^7 human derived cancer cells depending on the cell line xenograft model. Tumors were measured using calipers until they reached approximately 100-150 mm^3. Animals were randomized to receive A) vehicle (0.5% methylcellulose (4000 cps)/0.2% Tween80 in water), B) a PRMT5 inhibitor, C) docetaxel, or D) the PRMT5 inhibitor and docetaxel, administered in accordance with the indicated route, schedule and treatment duration. Tumor volume was measured twice a week (n=5/treatment group). Average tumor volume and standard error of the mean was calculated and plotted at each study day in GraphPad.
This example was carried out according to the study procedure described above. The PRMT5 inhibitor was MRTX1719 administered at 100 mg/kg once a day (QD). MRTX1719 is (2M)-2-(4-(4-(aminomethyl)-1-oxo-1,2-dihydrophthalazin-6-yl)-1-methyl-1H-pyrazol-5-yl)-4-chloro-6-cyclopropoxy-3-fluorobenzonitrile, disclosed as Example 16-8 at p. 307 of the International patent publication No. WO 2021/050915 A1, published 18 Mar. 2021, incorporated by reference in its entirety.
Substantially the same procedure of Example 1 was repeated except with mice bearing MIAPaCa-2 xenograft tumors.

CC(=O)O[C@@]12CO[C@@H]1C[C@H](O)[C@@]1(C)C(=O)[C@H](O)C3=C(C)[C@@H](OC(=O)[C@H](O)[C@@H](NC(=O)OC(C)(C)C)c4ccccc4)C[C@@](O)([C@@H](OC(=O)c4ccccc4)[C@H]21)C3(C)C [Docetaxel, docetaxel]
Tumor Volume, Mean: 243 mm^3
